# ChEMBL document CHEMBL5316269, “Rational Design of a New RXR Agonist Scaffold Enabling Single-Subtype Preference for RXRα, RXRβ, and RXRγ” (J Med Chem, 2023)
# Active and inactive are the calls of the source. The calls are words filed in the database; no cut-off is given here.
# Biological target: T1, Retinoic acid receptor RXR-alpha (Homo sapiens) (UniProt P19793)
# T1 sequence (whole entry): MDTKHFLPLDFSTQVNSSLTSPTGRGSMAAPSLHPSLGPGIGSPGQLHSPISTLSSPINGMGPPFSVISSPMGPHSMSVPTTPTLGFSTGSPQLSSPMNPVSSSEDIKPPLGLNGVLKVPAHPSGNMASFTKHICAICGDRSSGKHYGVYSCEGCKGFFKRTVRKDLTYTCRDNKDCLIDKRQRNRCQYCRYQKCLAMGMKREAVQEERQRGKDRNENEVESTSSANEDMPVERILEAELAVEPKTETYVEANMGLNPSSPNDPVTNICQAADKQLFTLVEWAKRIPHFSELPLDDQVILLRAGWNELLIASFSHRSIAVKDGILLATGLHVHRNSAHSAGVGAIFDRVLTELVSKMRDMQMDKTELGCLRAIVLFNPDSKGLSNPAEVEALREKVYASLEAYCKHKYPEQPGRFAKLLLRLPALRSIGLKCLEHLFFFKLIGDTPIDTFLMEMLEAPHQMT
# Assay: Agonist activity at human GAL4-fused RXRalpha LBD expressed in human HEK293T cells cotransfected with pFR-Luc and pRL-SV40 assessed as increase in luciferase activity at 100 uM incubated for 16 hrs by Dual-Glo luciferase assay
# Type: cell-based
compound,measurement,value
O=C(O)c1ccccc1COc1cccc2c1CCC2,Activity,inactive
